From article PMC9386001, “Identification of naturally occurring inhibitors in Xian-Ling-Gu-Bao capsule against the glucuronidation of estrogens” (Frontiers in Pharmacology, 2022) come the findings set out here.

In one data set the target is T1, UGT1A10 (Homo sapiens, UniProt Q9HAW8).
T1 sequence (Q9HAW8 26-530): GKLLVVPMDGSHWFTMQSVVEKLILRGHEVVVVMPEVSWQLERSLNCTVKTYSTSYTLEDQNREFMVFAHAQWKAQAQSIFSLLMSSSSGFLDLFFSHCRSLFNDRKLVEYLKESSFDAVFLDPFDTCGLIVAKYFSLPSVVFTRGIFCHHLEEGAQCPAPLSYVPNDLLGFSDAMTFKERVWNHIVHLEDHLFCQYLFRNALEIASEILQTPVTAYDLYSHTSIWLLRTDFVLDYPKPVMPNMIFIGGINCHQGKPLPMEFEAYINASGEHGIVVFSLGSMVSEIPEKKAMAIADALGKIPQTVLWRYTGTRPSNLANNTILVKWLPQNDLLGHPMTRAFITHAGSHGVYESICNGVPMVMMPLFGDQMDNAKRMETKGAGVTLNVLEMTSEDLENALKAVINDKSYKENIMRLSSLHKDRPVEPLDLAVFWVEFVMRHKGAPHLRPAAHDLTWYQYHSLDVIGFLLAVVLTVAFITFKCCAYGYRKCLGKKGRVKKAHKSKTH
Description: Inhibition of UGT1A10 (4-methylumbelliferone-O-glucuronidation). How it is done: (§1) The final volume of solvent in incubations was 1%. In addition, emodin, atazanavir, and diclofenac were considered as positive controls for UGT1A10, UGT1A1, and UGT2B7, respectively.
(§2) Competitive inhibition, non-competitive inhibition, and mixed-type inhibition models were used to estimate the Ki values by nonlinear regression based on Eqs 6–8, respectively.

The next data set deals with T2, UGT2B7 (Homo sapiens, UniProt P16662).
T2 sequence (P16662 24-529): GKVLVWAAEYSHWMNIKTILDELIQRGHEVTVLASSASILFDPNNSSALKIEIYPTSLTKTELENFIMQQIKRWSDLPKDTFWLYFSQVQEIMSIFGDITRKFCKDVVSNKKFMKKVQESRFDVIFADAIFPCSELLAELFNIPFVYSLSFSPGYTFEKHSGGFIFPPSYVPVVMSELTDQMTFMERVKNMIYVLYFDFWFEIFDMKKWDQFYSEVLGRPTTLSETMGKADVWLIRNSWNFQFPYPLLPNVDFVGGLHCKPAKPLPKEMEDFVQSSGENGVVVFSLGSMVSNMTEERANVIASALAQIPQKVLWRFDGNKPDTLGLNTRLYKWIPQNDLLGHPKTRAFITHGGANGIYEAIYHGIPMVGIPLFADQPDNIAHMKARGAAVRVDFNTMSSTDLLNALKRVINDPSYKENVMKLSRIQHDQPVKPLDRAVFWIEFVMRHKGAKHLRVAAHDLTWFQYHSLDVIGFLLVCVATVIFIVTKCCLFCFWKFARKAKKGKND
Kind of data set: Inhibition of UGT2B7 (zidovudine-N-glucuronidation). As to the method: as §1, §2

The next data set concerns the target T3, UGT1A1 (Homo sapiens, UniProt P22309).
T3 sequence (P22309 26-533): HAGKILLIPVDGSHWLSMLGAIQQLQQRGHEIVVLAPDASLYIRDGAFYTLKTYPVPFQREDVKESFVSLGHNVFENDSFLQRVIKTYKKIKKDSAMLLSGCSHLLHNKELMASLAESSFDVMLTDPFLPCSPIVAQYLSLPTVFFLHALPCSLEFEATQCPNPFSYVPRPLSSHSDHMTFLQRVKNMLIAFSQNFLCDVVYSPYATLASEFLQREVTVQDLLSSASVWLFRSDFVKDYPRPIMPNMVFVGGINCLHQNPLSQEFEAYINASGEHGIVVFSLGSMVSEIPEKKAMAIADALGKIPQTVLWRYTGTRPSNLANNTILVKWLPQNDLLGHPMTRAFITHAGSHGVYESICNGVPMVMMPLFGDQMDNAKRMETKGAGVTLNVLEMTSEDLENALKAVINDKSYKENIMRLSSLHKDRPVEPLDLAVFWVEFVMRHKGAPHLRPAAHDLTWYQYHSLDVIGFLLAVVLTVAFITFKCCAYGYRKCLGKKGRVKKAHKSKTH
Description: Inhibition of UGT1A1 (β-estradiol-3-O-glucuronidation). How it is done: as §1, §2

The term IC50 denotes the concentration at which inhibition is half-maximal. A higher IC50 goes with weaker potency in that assay. One may read the Ki as the equilibrium dissociation constant of an inhibitor or competing ligand from its target. As to icariside II, the “residual activity of UGT1A10” value at UGT1A10 (10 μM, % of negative control) is 34.22%. In addition, the concentration for half-maximal inhibition (IC50) against UGT1A10 (UGT1A10, substrate 4-MU) came out at 4740 ± 570 nM; on UGT2B7 (UGT2B7, substrate AZT), 10200 ± 1620 nM; at UGT1A1 (UGT1A1, substrate E2), 2470 ± 290 nM. Moreover, the Ki on UGT1A10 (UGT1A10, substrate 4-MU) amounted to 3260 ± 420 nM; at UGT2B7 (UGT2B7, substrate AZT), 2020 ± 260 nM; on UGT1A1 (UGT1A1, substrate E2), 1180 ± 210 nM. For the same substance, the “residual activity (Figures 3G–I, UGT2B7)” value at UGT2B7 (10 μM, % of negative control) is recorded as 46.34%. Also, the “remaining activity of UGT1A1” value on UGT1A1 (10 μM, % of negative control) is recorded as 5.80%.
